From ChEMBL document CHEMBL3430320, “Prediction of Thorough QT study results using action potential simulations based on ion channel screens” (J Pharmacol Toxicol Methods, 2014)

Sequences of proteins named here, by UniProt entry; tags and fusion partners are left off. A change or cut given only in a name is not applied to a line headed by its entry.
UniProt Q12809: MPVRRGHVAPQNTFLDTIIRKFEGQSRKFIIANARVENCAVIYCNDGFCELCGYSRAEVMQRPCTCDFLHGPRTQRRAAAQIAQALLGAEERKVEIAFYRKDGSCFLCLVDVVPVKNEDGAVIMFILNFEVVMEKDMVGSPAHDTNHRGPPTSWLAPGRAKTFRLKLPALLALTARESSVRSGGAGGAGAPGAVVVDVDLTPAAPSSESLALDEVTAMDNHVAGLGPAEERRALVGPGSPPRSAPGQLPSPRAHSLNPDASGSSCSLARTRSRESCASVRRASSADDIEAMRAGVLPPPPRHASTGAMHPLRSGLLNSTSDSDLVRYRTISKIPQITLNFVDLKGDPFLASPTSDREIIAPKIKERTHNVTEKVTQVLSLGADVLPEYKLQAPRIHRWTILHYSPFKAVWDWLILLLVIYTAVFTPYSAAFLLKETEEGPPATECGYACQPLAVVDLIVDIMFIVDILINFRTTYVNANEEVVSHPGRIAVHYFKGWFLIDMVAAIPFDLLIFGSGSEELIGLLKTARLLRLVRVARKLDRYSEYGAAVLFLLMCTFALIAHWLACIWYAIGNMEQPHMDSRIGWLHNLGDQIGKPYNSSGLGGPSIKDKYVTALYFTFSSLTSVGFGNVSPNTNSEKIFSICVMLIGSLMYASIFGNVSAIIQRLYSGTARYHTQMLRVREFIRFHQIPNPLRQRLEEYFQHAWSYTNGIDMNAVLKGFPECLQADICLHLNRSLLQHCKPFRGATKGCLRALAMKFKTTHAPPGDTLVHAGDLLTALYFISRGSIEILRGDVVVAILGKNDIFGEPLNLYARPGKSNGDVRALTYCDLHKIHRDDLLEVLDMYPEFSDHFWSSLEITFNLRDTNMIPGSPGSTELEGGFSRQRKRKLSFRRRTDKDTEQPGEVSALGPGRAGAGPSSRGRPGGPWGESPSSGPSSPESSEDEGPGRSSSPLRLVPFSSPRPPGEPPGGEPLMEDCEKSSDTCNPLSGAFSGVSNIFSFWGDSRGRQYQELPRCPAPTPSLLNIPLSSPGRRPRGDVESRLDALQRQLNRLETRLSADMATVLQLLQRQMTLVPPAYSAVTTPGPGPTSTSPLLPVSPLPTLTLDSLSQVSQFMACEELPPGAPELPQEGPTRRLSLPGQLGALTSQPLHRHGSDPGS

Columns and labels:
[1] = target: T1, Voltage-gated inwardly rectifying potassium channel KCNH2 (Homo sapiens, UniProt Q12809); assay: Inhibition of rapid delayed inward rectifying potassium current (IKr) in Chinese hamster ovary (CHO) K1 cells stably expressing hERG measured using IonWorks Quattro automated patch clamp platform; type: functional, cell-based, Cricetulus griseus
[2] = target: T1, Voltage-gated inwardly rectifying potassium channel KCNH2; assay: Inhibition of rapid delayed inward rectifying potassium current (IKr) measured using manual patch clamp assay; type: functional
[3] = target: T1, Voltage-gated inwardly rectifying potassium channel KCNH2; assay: Inhibition of rapid delayed inward rectifying potassium current (IKr) in Chinese hamster ovary (CHO) cells stable expressing hERG measured using IonWorks Barracuda automated patch clamp platform; type: functional, cell-based, Cricetulus griseus

Compound: C[C@@H](O)[C@H]1C(=O)N2C(C(=O)O)=C(S[C@@H]3CN[C@H](CNS(N)(=O)=O)C3)[C@H](C)[C@H]12 [DORIPENEM]
- pIC50 [1]: 2.1

Compound: Cc1cn(-c2cc(NC(=O)c3ccc(C)c(Nc4nccc(-c5cccnc5)n4)c3)cc(C(F)(F)F)c2)cn1 [NILOTINIB]
- IC50 [2]: 0.126 µM
- pIC50 [3]: Inactive
- IC50 [1]: 63.1 µM

Compound: N[C@@H](CC(=O)N1CCn2c(nnc2C(F)(F)F)C1)Cc1cc(F)c(F)cc1F [SITAGLIPTIN]
- IC50 [2]: 158 µM
